Measured values taken from paper PMC8776895 (British journal of pharmacology, 2021).
Positions of bridges follow the written chain, without caps; N, C: chain ends. Residues, ends and D or L forms follow the SMILES beside them.

Molecular target: T1, m-CTR:pcDNA (m-CTR alone) (Mus musculus, UniProt Q60755)
T1 sequence (Q60755 42-496 isoform Q60755-2 limits assumed): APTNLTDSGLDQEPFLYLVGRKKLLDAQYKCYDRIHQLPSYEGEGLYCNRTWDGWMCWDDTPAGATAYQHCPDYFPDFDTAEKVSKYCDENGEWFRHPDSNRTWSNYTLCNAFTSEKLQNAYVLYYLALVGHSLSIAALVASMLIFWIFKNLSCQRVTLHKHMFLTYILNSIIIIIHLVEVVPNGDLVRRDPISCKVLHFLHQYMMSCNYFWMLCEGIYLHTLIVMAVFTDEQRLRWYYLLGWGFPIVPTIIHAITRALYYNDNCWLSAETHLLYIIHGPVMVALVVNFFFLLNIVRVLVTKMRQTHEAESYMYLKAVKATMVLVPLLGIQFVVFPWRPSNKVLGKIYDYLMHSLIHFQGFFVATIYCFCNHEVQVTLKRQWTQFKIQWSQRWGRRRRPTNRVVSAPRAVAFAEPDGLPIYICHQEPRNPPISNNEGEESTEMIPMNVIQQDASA
Experiment: cAMP production, agonist concentration-response, transfected Cos7 cells
Format: cell-based
Settings: cAMP pEC50

CC(C)C[C@H](NC(=O)[C@H](CCCNC(=N)N)NC(=O)[C@H](Cc1c[nH]cn1)NC(=O)[C@@H](NC(=O)[C@@H](NC(=O)[C@@H]1CSSC[C@H](NC(=O)[C@@H](N)CO)C(=O)N[C@@H](CC(N)=O)C(=O)N[C@@H]([C@@H](C)O)C(=O)N[C@@H](C)C(=O)N[C@@H]([C@@H](C)O)C(=O)N1)C(C)C)[C@@H](C)O)C(=O)N[C@@H](C)C(=O)N[C@@H](CC(=O)O)C(=O)N[C@@H](CC(C)C)C(=O)N[C@@H](CC(C)C)C(=O)N[C@@H](CO)C(=O)N[C@@H](CCCNC(=N)N)C(=O)N[C@@H](CO)C(=O)NCC(=O)NCC(=O)N[C@H](C(=O)N[C@@H](CC(C)C)C(=O)N[C@@H](CCCCN)C(=O)N[C@@H](CC(=O)O)C(=O)N[C@@H](CC(N)=O)C(=O)N[C@@H](Cc1ccccc1)C(=O)N[C@H](C(=O)N1CCC[C@H]1C(=O)N[C@H](C(=O)N[C@@H](CC(=O)O)C(=O)N[C@H](C(=O)NCC(=O)N[C@@H](CO)C(=O)N[C@@H](CCC(=O)O)C(=O)N[C@@H](C)C(=O)N[C@@H](Cc1ccccc1)C(N)=O)C(C)C)[C@@H](C)O)C(C)C)C(C)C [m-βCGRP] (H-SCNTATCVTHRLADLLSRSGGVLKDNFVPTDVGSEAF-NH2; disulfide 2-7)
fold more potent than m/r-Amy: ~ 10 fold
